We go through five molecules from ChEMBL document CHEMBL1121781, “Potential antitumor agents. 34. Quantitative relationships between DNA binding and molecular structure for 9-anilinoacridines substituted in the anilino ring” (J Med Chem, 1981).

Test [1] relates to Nucleic Acid.
Test [2] relates to Nucleic Acid. The source holds these as a separate data set.

`CS(=O)(=O)Nc1cccc(Nc2c3ccccc3nc3ccccc23)c1` showed a Log K in the test with Nucleic Acid [1] of 5.73.

In the test with Nucleic Acid [1], `COC(=O)Nc1ccc(Nc2c3ccccc3nc3ccccc23)cc1` displayed a Log K of 6.36.

As for `CC(=O)Nc1ccc(Nc2c3ccccc3nc3ccccc23)cc1`, the Log K in the test on Nucleic Acid [1] turned out to be 6.3; with Nucleic Acid [2], 6.25.

Take `CS(=O)(=O)Nc1ccc(Nc2c3ccccc3nc3ccccc23)cc1`: the figures for the Log K with Nucleic Acid [1] and in the test on Nucleic Acid [2] were 6.15 and 6.27, respectively.

Consider `CNC(=O)Nc1ccc(Nc2c3ccccc3nc3ccccc23)cc1`, for which the values for the Log K in the test on Nucleic Acid [1] and in the test with Nucleic Acid [2] were 6.24 and 6.17, respectively.
